# Literature values in paper PMC8129907 (Journal of Bone and Joint Infection, 2021).
# Conditions: range across clinical and experimental studies of intraosseous vancomycin; ref Young et al., 2014; Chin et al., 2018; Loc-Carrillo et al., 2016; Rubio-Martinez et al., 2006; Chastagner et al., 2001; cited from earlier work
structure (smiles),measurement,value
CN[C@H](CC(C)C)C(=O)N[C@H]1C(=O)N[C@@H](CC(N)=O)C(=O)N[C@H]2C(=O)N[C@H]3C(=O)N[C@H](C(=O)N[C@H](C(=O)O)c4cc(O)cc(O)c4-c4cc3ccc4O)[C@H](O)c3ccc(c(Cl)c3)Oc3cc2cc(c3O[C@@H]2O[C@H](CO)[C@@H](O)[C@H](O)[C@H]2O[C@H]2C[C@](C)(N)[C@H](O)[C@H](C)O2)Oc2ccc(cc2Cl)[C@H]1O [vancomycin],mean peak drug plasma concentrations,1.8 to 11 µg/mL
